Source: paper PMC6770782

Target: canine Na+,K+-ATPase β1 subunit tagged with a hexahistidine tail at its N-terminal end (dog) (UniProt P06583)
Experiment: pull-down; β1His6 immobilised from RIPA lysate on Ni-NTA resin, washed with 20 mM imidazole; 10 mg protein of prey lysate loaded, overnight at 4 °C; eluted with 500 mM imidazole; immunoblot with anti-β1 and anti-GFP, densitometry normalised to YFP-β1 WT (n = 3)

Row | Substance | decrease of the pull-down signal against YFP-β1 WT (anti-GFP densitometry) [% decrease] | pull-down signal relative to YFP-β1 WT (anti-GFP densitometry) [%]
1 | YFP-β1 M3 (residues 227-229 replaced by the equivalent residues of the dog β2 subunit isoform) (from UniProt P06583 1-303) (natural protein) | 50 | 
2 | YFP-β1 M4 (residues 231-233 mutated to alanine) (from UniProt P06583 1-303) (natural protein) | 50 | 
3 | YFP-β1 M2 (residues 222-224 mutated to alanine) (from UniProt P06583 1-303) (natural protein) |  | 25
